Target: Platelet-derived growth factor receptor beta (Homo sapiens, UniProt P09619)
Assay: Inhibition of PDGFRbeta

Chains of the proteins cited; added tags and fusions are not shown.
UniProt P09619, whole entry: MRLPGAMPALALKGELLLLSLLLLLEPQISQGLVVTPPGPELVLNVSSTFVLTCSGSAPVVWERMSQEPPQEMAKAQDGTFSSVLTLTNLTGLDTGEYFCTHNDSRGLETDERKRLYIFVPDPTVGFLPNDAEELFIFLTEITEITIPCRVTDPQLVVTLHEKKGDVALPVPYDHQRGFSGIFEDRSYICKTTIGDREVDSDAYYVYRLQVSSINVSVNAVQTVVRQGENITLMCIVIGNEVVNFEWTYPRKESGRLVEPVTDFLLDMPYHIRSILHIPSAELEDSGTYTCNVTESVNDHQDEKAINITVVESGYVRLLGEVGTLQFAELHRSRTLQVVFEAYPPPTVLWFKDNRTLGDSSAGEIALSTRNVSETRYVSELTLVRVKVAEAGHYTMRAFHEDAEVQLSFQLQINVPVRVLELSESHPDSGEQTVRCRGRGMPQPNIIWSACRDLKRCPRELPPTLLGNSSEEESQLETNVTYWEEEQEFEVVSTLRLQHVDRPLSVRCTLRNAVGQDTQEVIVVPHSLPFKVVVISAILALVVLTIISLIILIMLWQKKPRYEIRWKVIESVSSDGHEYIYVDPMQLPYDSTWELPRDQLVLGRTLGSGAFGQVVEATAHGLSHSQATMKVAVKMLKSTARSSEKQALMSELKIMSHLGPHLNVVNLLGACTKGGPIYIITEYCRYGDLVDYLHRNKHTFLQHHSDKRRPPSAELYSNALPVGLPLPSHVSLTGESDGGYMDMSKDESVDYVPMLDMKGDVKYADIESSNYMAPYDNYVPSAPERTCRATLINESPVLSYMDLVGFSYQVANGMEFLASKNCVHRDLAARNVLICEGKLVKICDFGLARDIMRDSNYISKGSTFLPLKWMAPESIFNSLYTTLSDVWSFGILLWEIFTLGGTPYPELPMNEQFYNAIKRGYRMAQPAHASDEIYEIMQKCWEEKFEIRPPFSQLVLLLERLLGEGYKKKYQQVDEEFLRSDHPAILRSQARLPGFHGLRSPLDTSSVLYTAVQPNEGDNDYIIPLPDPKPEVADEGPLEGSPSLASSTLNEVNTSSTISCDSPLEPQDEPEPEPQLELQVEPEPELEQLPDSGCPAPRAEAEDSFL

Compound: Cc1cc2ncc(-c3ccccc3)nc2cc1C [AG1295]
- IC50: 6.5 µM

Reference: ChEMBL document CHEMBL1157122, “The contribution of a 2-amino group on receptor tyrosine kinase inhibition and antiangiogenic activity in 4-anilinosubstituted pyrrolo[2,3-d]pyrimidines” (Bioorg Med Chem Lett, 2010)
